Data reported in US11725004B2, “(Cyano-dimethyl-methyl)-isoxazoles and -[1,3,4]thiadiazoles” (Centrexion Therapeutics Corporation, priority 2013, dated 2023).

The chains behind the UniProt entries cited, without tags or fusion partners.
UniProt P21554, whole entry: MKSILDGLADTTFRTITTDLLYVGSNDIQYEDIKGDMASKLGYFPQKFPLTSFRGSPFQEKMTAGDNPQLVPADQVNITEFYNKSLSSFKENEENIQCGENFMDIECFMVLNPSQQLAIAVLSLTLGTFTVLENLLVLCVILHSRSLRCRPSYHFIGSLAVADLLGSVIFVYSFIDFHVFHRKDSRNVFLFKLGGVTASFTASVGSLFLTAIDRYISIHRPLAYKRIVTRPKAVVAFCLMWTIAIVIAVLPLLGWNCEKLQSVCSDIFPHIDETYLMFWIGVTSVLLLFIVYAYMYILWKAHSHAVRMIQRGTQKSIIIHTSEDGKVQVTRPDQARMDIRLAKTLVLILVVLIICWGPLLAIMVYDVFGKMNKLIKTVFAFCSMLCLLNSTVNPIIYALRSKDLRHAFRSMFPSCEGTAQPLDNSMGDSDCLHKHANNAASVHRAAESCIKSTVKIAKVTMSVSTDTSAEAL

Molecular target: human CB1R (Homo sapiens (Human), UniProt P21554)
Assay: CB1 cAMP (Assay 2): in vitro testing of CB1 potency
Format: cell-based
Settings: CHO cells expressing human CB1R; inhibition of forskolin-stimulated cAMP

Question: With `CC(C)(C#N)c1cc(NC(=O)[C@@H]2CCCN2C2CCOCC2)on1` [Example 6, (S)-1-(Tetrahydro-pyran-4-yl)-pyrrolidine-2-carboxylic acid[3-(cyano-dimethyl-methyl)-isoxazol-5-yl]-amide] as the molecule, how does the IC50 read?
Answer: 87 µM
